Paper PMC7206614, “Photoswitchable ORG25543 Congener Enables Optical Control of Glycine Transporter 2” (ACS Chemical Neuroscience, 2020)
Like-named read-outs stand apart in the source and are kept apart here.

Amino acid sequences for entries named in this document (tags omitted). A change or cut given only in a name is not applied to a line headed by its entry.
UniProt P48067: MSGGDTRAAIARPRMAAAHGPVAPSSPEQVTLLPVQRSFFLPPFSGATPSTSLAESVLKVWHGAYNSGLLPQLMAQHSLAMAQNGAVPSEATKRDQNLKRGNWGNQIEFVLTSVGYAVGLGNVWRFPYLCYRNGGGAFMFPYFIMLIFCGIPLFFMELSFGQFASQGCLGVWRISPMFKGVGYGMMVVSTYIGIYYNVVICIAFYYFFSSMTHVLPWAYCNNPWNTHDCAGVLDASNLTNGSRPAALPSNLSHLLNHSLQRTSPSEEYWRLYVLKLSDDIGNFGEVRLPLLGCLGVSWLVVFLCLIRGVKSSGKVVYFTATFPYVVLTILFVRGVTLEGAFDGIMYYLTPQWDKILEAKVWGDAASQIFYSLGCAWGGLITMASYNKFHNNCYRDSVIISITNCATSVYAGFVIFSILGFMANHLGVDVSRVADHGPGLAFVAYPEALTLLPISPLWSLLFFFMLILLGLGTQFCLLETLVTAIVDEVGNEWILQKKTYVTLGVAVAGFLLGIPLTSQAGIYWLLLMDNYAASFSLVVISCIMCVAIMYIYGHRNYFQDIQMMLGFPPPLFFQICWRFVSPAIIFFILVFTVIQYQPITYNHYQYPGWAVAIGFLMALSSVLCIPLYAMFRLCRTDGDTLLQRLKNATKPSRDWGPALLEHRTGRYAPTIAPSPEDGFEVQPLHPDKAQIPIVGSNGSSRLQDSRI
UniProt Q9Y345: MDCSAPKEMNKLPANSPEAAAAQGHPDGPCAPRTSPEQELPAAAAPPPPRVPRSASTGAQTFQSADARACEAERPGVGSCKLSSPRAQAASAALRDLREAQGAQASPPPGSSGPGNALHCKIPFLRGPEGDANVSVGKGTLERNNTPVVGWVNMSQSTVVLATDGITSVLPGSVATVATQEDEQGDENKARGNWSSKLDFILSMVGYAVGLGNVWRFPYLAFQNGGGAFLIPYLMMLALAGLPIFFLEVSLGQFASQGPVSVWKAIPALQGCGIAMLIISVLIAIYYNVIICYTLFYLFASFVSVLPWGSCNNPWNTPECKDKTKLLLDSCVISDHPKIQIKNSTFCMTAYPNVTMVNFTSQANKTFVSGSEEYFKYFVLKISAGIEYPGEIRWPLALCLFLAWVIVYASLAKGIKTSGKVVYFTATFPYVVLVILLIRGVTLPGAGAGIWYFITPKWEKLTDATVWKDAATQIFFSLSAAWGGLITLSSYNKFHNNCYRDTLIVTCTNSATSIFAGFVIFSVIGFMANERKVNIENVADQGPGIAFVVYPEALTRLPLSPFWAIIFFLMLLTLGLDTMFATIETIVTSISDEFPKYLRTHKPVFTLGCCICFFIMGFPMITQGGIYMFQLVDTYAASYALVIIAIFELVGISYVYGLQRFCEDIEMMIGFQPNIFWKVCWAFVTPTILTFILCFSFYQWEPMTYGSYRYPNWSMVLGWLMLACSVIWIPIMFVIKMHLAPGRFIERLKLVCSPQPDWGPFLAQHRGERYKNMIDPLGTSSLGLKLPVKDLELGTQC

Columns and labels:
GlyT1 = GlyT1 (Homo sapiens, UniProt P48067); experiment: Glycine transport currents in oocytes expressing GlyT1; settings: highest concentration of both isomers, 365 or 470 nm
GlyT2 = GlyT2 (Homo sapiens, UniProt Q9Y345); experiment: Two-electrode voltage clamp of glycine transport currents in Xenopus laevis oocytes expressing GlyT2; type: cell-based; settings: for fold less potent than the nonazologized parent analogue 2: GlyT2 IC50 compared with 2; for Imax: mean ± SEM
[1] = Thermal relaxation of (Z)-3 in the dark monitored by UV/vis spectroscopy; settings: PBS pH 7.4, preirradiated with 365 nm light, left in the dark, spectra every 12 h
[2] = glycine Imax with 1 μM azo-compound 3, normalized to Imax of glycine transport in the absence of inhibitor
[3] = glycine Imax with 3 μM azo-compound 3, normalized to Imax of glycine transport in the absence of inhibitor
[4] = glycine Imax with 10 μM azo-compound 3, normalized to Imax of glycine transport in the absence of inhibitor
[5] = glycine Imax with 30 μM azo-compound 3, normalized to Imax of glycine transport in the absence of inhibitor
[6] = read-out: average IC50, average over the glycine concentrations of Table 1
[7] = read-out: azo-compound 3 IC50, 10 μM glycine, 3 irradiated at 365 nm ((Z)-3) or 470 nm ((E)-3), mean (95% confidence interval)
[8] = read-out: azo-compound 3 IC50, 30 μM glycine, 3 irradiated at 365 nm ((Z)-3) or 470 nm ((E)-3), mean (95% confidence interval)
[9] = read-out: azo-compound 3 IC50, 100 μM glycine, 3 irradiated at 365 nm ((Z)-3) or 470 nm ((E)-3), mean (95% confidence interval)
[10] = read-out: azo-compound 3 IC50, 300 μM glycine, 3 irradiated at 365 nm ((Z)-3) or 470 nm ((E)-3), mean (95% confidence interval)
[11] = read-out: azo-compound 3 IC50, 1000 μM glycine, 3 irradiated at 365 nm ((Z)-3) or 470 nm ((E)-3), mean (95% confidence interval)

Row | Structure (SMILES) | activity at GlyT1 (GlyT1) | reversibility of inhibition after washing (GlyT2; 10 μM 3, 300 μM glycine, glycine reapplied after 5 min wash, both isomers) | mechanism of glycine transport inhibition (GlyT2; glycine concentration response curves with increasing 3, Eadie-Hofstee plots, 365 and 470 nm) | time to complete thermal relaxation of (Z)-3 to (E)-3 [1] | fold less potent than the nonazologized parent analogue 2 (GlyT2) | Imax (GlyT2; [2]) | Imax (GlyT2; [3]) | Imax (GlyT2; [4]) | Imax (GlyT2; [5]) | IC50 (GlyT2; [6]) | IC50 (GlyT2; [7]) | IC50 (GlyT2; [8]) | IC50 (GlyT2; [9]) | IC50 (GlyT2; [10]) | IC50 (GlyT2; [11]) | fold more potent, trans versus cis conformation (GlyT2; GlyT2 inhibition)
1 | COc1cc(C(=O)NCC2(N(C)C)CCCCC2)ccc1N=Nc1ccccc1 | no activity | fully reversed after 5 min | noncompetitive inhibitor |  |  |  |  |  |  |  |  |  |  |  |  | 
2 | COc1cc(C(=O)NCC2(N(C)C)CCCCC2)ccc1/N=N\c1ccccc1 |  |  |  | 84 h | > 110 fold | 0.916 ± 0.022 | 0.835 ± 0.033 | 0.642 ± 0.031 | 0.527 ± 0.063 | 9.94 µM | 11.1 µM | 12.3 µM | 10.6 µM | 9.25 µM | 6.44 µM | 
3 | COc1cc(C(=O)NCC2(N(C)C)CCCCC2)ccc1/N=N/c1ccccc1 |  |  |  |  | > 110 fold | 0.872 ± 0.029 | 0.732 ± 0.033 | 0.495 ± 0.036 | 0.332 ± 0.043 | 5.36 µM | 4.84 µM | 5.77 µM | 4.49 µM | 7.12 µM | 4.6 µM | 2 fold
